# Measured values as given in article PMC11089511 (Journal of Medicinal Chemistry, 2024).
# Assay: in vitro
# Conditions: PAMPA
row,"recovery at 4 h, 80 μM [%]",Structure (SMILES)
1,42,"CCc1oc2c(Cl)ccc(Cl)c2c1C(=O)c1cc(I)c(O)c(I)c1 [Compound 7, (4,7-Dichloro-2-ethylbenzofuran-3-yl)(4-hydroxy-3,5-diiodophenyl)methanone]"

# Assay: not given
# Conditions: 1 μM compound, rat plasma, 6 h dialysis
row,Structure (SMILES),plasma protein binding in rats (% unbound)
1,"CCc1oc2cccc(Br)c2c1C(=O)c1cc(I)c(O)c(I)c1 [Compound 5, (4-Bromo-2-ethylbenzofuran-3-yl)(4-hydroxy-3,5-diiodophenyl)methanone]",<0.01
2,"CCc1oc2cccc(I)c2c1C(=O)c1cc(I)c(O)c(I)c1 [Compound 4, (2-Ethyl-4-iodobenzofuran-3-yl)(4-hydroxy-3,5-diiodophenyl)methanone]",<0.01

# More lines, now with the values ahead:
row,plasma protein binding in rats (% unbound),Structure (SMILES)
1,<0.01,"CCc1oc2cccc(C)c2c1C(=O)c1cc(I)c(O)c(I)c1 [Compound 8, (2-Ethyl-4-methylbenzofuran-3-yl)(4-hydroxy-3,5-diiodophenyl)methanone]"
2,<0.01,"CCc1oc2cccc(Cl)c2c1C(=O)c1cc(I)c(O)c(I)c1 [Compound 6, (4-Chloro-2-ethylbenzofuran-3-yl)(4-hydroxy-3,5-diiodophenyl)methanone]"
3,<0.01,"CCc1oc2c(Cl)ccc(Cl)c2c1C(=O)c1cc(I)c(O)c(I)c1 [Compound 7, (4,7-Dichloro-2-ethylbenzofuran-3-yl)(4-hydroxy-3,5-diiodophenyl)methanone]"
